Apparent affinities of Ab-14 variants for a coronavirus HR2 peptide

Target: peptide PDVDLGDISGINAS, taken from heptad repeat 2 (HR2) of SARS-CoV-2 spike.

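The starting antibody came from a phage panning campaign against this peptide. In library AAYL49, one, two or three CDR residues were substituted; doubles and triples were drawn at random. Affinity was read by AlphaSeq, a pooled yeast mating assay with surface-displayed partners. Binding brings cells together so that they mate, and sequencing counts the barcode pairs among the diploids. Read counts were normalised to the haploid input and turned into Kd by a linear fit to BCL2-family pairs of known affinity, for each replicate. The assay was run in three technical replicates.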

Parent: Ab-14, a human scFv built as VH, three GGGGS repeats, VL. Only the CDRs of the heavy chain vary.
VH: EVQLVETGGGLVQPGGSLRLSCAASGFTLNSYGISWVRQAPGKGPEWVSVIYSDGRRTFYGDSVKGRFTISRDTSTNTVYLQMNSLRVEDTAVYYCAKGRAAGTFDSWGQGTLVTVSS
VL: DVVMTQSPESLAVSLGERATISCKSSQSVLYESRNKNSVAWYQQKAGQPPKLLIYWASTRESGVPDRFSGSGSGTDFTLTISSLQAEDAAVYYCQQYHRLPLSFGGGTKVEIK

Substitutions are numbered in sequence along the VH above, starting at 1 (not Kabat). Every variant below is changed at R56 of the VH (sequential numbering). The Kd shown is the geometric mean over detected replicates; a lower Kd is a better binder. "nd" marks a missing value. The strain was present, yet no cells mated with the target were sequenced in any replicate, which points to weak or no binding. As a blank, each scFv also met three strains without target: over library AAYL49, 15% of these pairings were detected, typically at 11 µM and seldom below 680 nM. For each scFv, signals with the empty controls are counted beside the result.

- R56P S63A T104V -> nd (0 of 3 replicates; controls 2 of 9)
- Y52G R56Y F105G -> nd (0 of 3 replicates; controls 0 of 9)
- G33D R56K T58F -> 990 nM (1 of 3 replicates; controls 1 of 9)
- S31Y R56T G99K -> 10 nM (3 of 3 replicates; controls 0 of 9)
- Y52C R56L S63G -> nd (0 of 3 replicates; controls 0 of 9)
- V50K R56M -> nd (0 of 3 replicates; controls 0 of 9)
- Y52G D54K R56M -> 3.2 µM (1 of 3 replicates; controls 0 of 9)
- S35I R56P K65D -> 95 µM (1 of 3 replicates; controls 1 of 9)
- S35G R56S V64G -> 29 µM (2 of 3 replicates; controls 5 of 9)
- S53W R56D Y60M -> 30 µM (2 of 3 replicates; controls 6 of 9)
- R56F Y60I -> nd (0 of 3 replicates; controls 3 of 9)
- R56D F59W -> 82 nM (3 of 3 replicates; controls 5 of 9)
- R56K T58A V64R -> 190 µM (1 of 3 replicates; controls 2 of 9)
- S31C R56I A101M -> 24 nM (3 of 3 replicates; controls 3 of 9)
- N30S R56I F59C -> 610 nM (3 of 3 replicates; controls 3 of 9)
- R56H R57L V64S -> nd (0 of 3 replicates; controls 0 of 9)
- S53L D54P R56I -> nd (0 of 3 replicates; controls 1 of 9)
- V50E R56H Y60I -> nd (0 of 3 replicates; controls 0 of 9)
- G26E R56M D62C -> 14 µM (1 of 3 replicates; controls 6 of 9)
- R56S K65N D106M -> 310 nM (3 of 3 replicates; controls 2 of 9)
- R56P K65Y R100V -> 960 nM (1 of 3 replicates; controls 3 of 9)
- D54N R56W G61H -> nd (0 of 3 replicates; controls 0 of 9)
- I34C R56D -> 3.1 µM (3 of 3 replicates; controls 1 of 9)
- R56Y G103Q D106V -> 2.8 µM (2 of 3 replicates; controls 1 of 9)
- T28W Y52N R56I -> 310 µM (1 of 3 replicates; controls 1 of 9)
- R56A R57P G103Y -> 2.1 µM (2 of 3 replicates; controls 2 of 9)
- R56T F105A -> 290 nM (3 of 3 replicates; controls 6 of 9)
- R56K S63K -> 6.6 nM (3 of 3 replicates; controls 1 of 9)
- S53W R56N G103S -> 4.9 µM (1 of 3 replicates; controls 0 of 9)
- R56I D62W -> nd (0 of 3 replicates; controls 1 of 9)
- R56W T104N -> nd (0 of 3 replicates; controls 0 of 9)
- G26A D54P R56G -> nd (0 of 3 replicates; controls 0 of 9)
- F27M R56Q F59I -> 2.3 µM (3 of 3 replicates; controls 6 of 9)
- Y52M R56W T58Y -> nd (0 of 3 replicates; controls 0 of 9)

The first 2 entries again:

{"changes": "R56P S63A T104V", "Kd": "nd", "replicates with signal": "0 of 3", "control signals": "2 of 9"}
{"changes": "Y52G R56Y F105G", "Kd": "nd", "replicates with signal": "0 of 3", "control signals": "0 of 9"}

Values reported by Engelhart et al. 2022, doi:10.1038/s41597-022-01779-4 (FLAb copy).